Laboratory results published in US20130216590A1, “TOPICAL ANTIVIRAL FORMULATIONS FOR PREVENTION OF TRANSMISSION OF HSV-2” (priority 2010, published 2013).

System: HSV-1 strain F (HSV-1F)
Experiment: Human ex vivo tonsillar tissue, HSV DNA release by real-time PCR
Type: cell-based
Conditions: 66 μg/ml

## C[C@H](Cn1cnc2c(N)ncnc21)OCP(=O)(O)O [tenofovir, (R)-9-(2-phosphonylmethoxypropyl)adenine]
HSV-1F
  reduction of replication compared to infected donor matched-untreated tissue: 99±0.1%
Day 9 post infection, IQR 3.9-4.3, untreated 8
  release of viral DNA in culture medium: 4 log10 DNA copies/ml
